Ab-95 light chain CDR variants: yeast mating affinities

The target is the same throughout: PDVDLGDISGINAS, from the HR2 region of SARS-CoV-2 spike.

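In library AAYL52, one, two or three CDR residues were substituted; doubles and triples were drawn at random. The assay is AlphaSeq: two haploid yeast populations carry antibody and antigen on their surface. The frequency of each diploid, read from paired DNA barcodes, reflects how well the two displayed proteins bind. A regression on co-assayed BCL2-family reference pairs converts the normalised counts of each replicate to an apparent Kd. Each pool was mated in three replicate cultures.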

Parent: Ab-95, a human scFv built as VH, a (GGGGS)3 linker, VL. Only the CDRs of the light chain vary.
VH: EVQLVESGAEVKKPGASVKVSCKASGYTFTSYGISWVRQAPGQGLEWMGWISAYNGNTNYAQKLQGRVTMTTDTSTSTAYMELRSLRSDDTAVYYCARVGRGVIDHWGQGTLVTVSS
VL: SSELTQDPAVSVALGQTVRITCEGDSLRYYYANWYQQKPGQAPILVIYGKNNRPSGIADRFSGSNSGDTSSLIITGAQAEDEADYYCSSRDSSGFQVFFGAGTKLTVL

Each variant is given by its three light chain CDRs, as the data file delimits them; those of the parent are EGDSLRYYYAN, GKNNRPS, SSRDSSGFQVF. Numbers give log10(Kd / nM), so 0 is 1 nM and 3 is 1 µM. Smaller is tighter. An entry "n.d." has no value in the source: the pair was not observed among the diploids in that replicate. This suggests poor binding but is not conclusive. Three control strains display no target. For library AAYL52, 28% of the pairings with them gave a signal, with a median of 3.91 and one signal in twenty below 2.90, so weak values seen in few replicates may be background. Also given: how often the same scFv was detected with the empty control strains, with their mean in brackets. Parent in this assay: reference entry 2.31, copy in this library 2.25.

CDR-L1	CDR-L2	CDR-L3	log10 Kd (nM) by replicate	control signals
EGDSLRYYYAN	GKNNRPS	NSDDSSGFGVF	3.77 / n.d. / n.d.	5 of 9 (4.24)
EGDSLPYYYAN	GKNNRPS	SSRDSSGFQVF	1.80 / 1.95 / 1.51	2 of 9 (3.75)
PGDSLRYYYAN	GENNRPS	SSRDDSGFQVF	3.15 / 2.18 / 1.91	2 of 9 (4.42)
EHDSLHYYYAN	VKNNRPS	SSRDSSGFQVF	n.d. / n.d. / n.d.	0 of 9
EGDSLRYYDAN	GKNTRPS	SSRDSSGFGVF	1.48 / 1.45 / 1.08	3 of 9 (3.98)
EWDSLRYYYAN	GFVNRPS	SSRDSSGFQVF	4.44 / 4.55 / n.d.	3 of 9 (3.00)
ESDSVRYYYAN	GKNNRPS	SSRDSSGFVVF	n.d. / n.d. / n.d.	0 of 9
EGDKLRYYYAN	GKNNRPS	SSRLSSGFQRF	n.d. / n.d. / n.d.	0 of 9
EGDSLRYYYAN	GKDARPS	SSRGSSGFQVF	3.13 / 3.19 / 2.92	4 of 9 (4.02)
EGDSLRYYYAM	GKNNRPS	SSRDSSGFQVF	2.59 / 3.56 / n.d.	3 of 9 (3.92)
EGDSERYYEAN	GKNNRPS	SSRDKSGFQVF	2.84 / 2.68 / 3.13	1 of 9 (5.69)
EGDSLRYYYRN	GKNNIPS	GSRDSSGFQVF	n.d. / n.d. / n.d.	3 of 9 (3.96)
EGDSLIYYYAN	NKNNRPN	SSRDSSGFQVF	2.87 / n.d. / n.d.	3 of 9 (3.95)
EGDSLRFYYAN	GKNNDPS	SSRDSSHFQVF	n.d. / 4.22 / 3.74	3 of 9 (4.85)
EGDSLRTYYAN	GENNEPS	SSRDSSGFQVF	4.42 / 3.20 / 4.10	5 of 9 (3.95)
EGDSLRYYGAN	GKNNLPS	SSRDSVGFQVF	2.77 / 3.13 / 2.64	4 of 9 (3.60)
EGDSLRYYYAN	GKNNFMS	MSRDSSGFQVF	4.57 / 4.81 / n.d.	2 of 9 (4.36)
EGWSLRYYYAN	GKNNRPS	SSRLSSGFQGF	4.40 / 3.33 / 4.13	2 of 9 (4.06)
ERDSLRYYYAN	GKNNRKS	SSRDSSGFQVY	n.d. / n.d. / n.d.	2 of 9 (3.18)
EGDSLQYCYAS	GKNNRPS	SSRDSSGFQVF	2.52 / 2.22 / 2.00	1 of 9 (3.68)
EGESLRYYTAN	GKNNSPS	SSRDSSGFQVF	2.54 / 2.36 / 3.09	3 of 9 (3.79)
EGASLRYYYAN	GKNNRPS	SSRDSSIFQVK	3.60 / 2.78 / 3.17	4 of 9 (3.65)
EEDSLRYQYAN	GKNNRPS	LSRDSSGFQVF	n.d. / n.d. / n.d.	1 of 9 (4.02)
EGQSLRYYYAP	GANNRPS	SSRDSSGFQVF	n.d. / 5.23 / n.d.	3 of 9 (4.07)
EGDSLRYYYAN	GKNNRPS	SSRFSSGTRVF	n.d. / 5.89 / n.d.	2 of 9 (4.73)
MGDSLRYYYAN	GKNNRPS	SSRDSSGDQVA	n.d. / 3.11 / n.d.	2 of 9 (4.73)
AGDSLRYSYAN	GKNNRPS	SSRDSSGFQVF	0.67 / 0.63 / -0.04	5 of 9 (4.65)
EGMSLRYHYAN	GKNNRRS	SSRDSSGFQVF	2.15 / 2.77 / 2.69	2 of 9 (3.89)
EGDSLSYYYHN	GKNNRPS	SSRDDSGFQVF	3.50 / 2.55 / n.d.	2 of 9 (3.23)
EGDELRYYYAN	GKRNRPS	SSRDSSCFQVF	4.07 / n.d. / 4.10	5 of 9 (3.48)

Picked from the list: the 2 lowest averages where every replicate gave a value.

CDR-L1,CDR-L2,CDR-L3,log10 Kd (nM) by replicate,control signals
AGDSLRYSYAN,GKNNRPS,SSRDSSGFQVF,0.67 / 0.63 / -0.04,5 of 9 (4.65)
EGDSLRYYDAN,GKNTRPS,SSRDSSGFGVF,1.48 / 1.45 / 1.08,3 of 9 (3.98)

Data: MIT Lincoln Laboratory AlphaSeq set, Engelhart et al. 2022, doi:10.1038/s41597-022-01779-4, as distributed in FLAb.